From patent US5597595A, “Low pH beverage fortified with calcium and vitamin D” (Abbott Laboratories, priority 1995, dated 1997)

Substance: Calcium Glycerophosphate [CaGP]
- solubility at 1 month, pH 3.5 (pH 3.5): remained soluble
- solubility at 1 month, pH 5.0 (pH 5): insoluble
